This note sets out measurements from patent US10092622B2, “Occidiofungin, a unique antifungal glycopeptide produced by a strain of Burkholderia contaminans” (M[…] University Research and Technology Corporation, priority 2009, dated 2018).

For the data set the following is noted: at concentrations required for NMR (5 mM samples prepared in 50% acetonitrile-d3/50% water instead).

On to occidiofungin, for which the “solubility in aqueous solutions” value is “not soluble”.
